The list shows a part of the results, in another mix than the full data. Inconclusive results are not listed. Active and inactive are the calls of the source. Calls come from the whole dose curve; as a rule, active = well fitted activation curve with a large enough effect; inconclusive = small, poorly fitted or top-dose-only effect; inactive = no such curve, though single readings can be large or run the other way.
Assay: qHTS of TDP-43 Inhibitors: NCGC Sytravon Library Screen; note: 0% is about no effect; nearly all actives have a fitted effect of over 55% in size
Settings: yeast TDP-43 toxicity rescue, BacTiter-Glo growth, 24 h; at 46.1 µM (top of the series)
Excerpt: The goal of this project is to identify new chemical probes capable of reversing the toxicity associated with TDP-43 which is associated with frontotemporal lobar degeneration and amyotrophic lateral sclerosis. These compounds will provide a complementary approach to deciphering the tangled mechanisms of toxicity and protection that we have uncovered through genome-wide genetic screens and are beginning to uncover in a large-scale proteomics analysis with mass spectroscopy. To this end, a miniaturized assay was developed to be screened against the Molecular Libraries Small Molecule Repository (MLSMR) to discover TDP-43 inhibitors. Please note that in the set-up this yeast-based assay compounds that inhibit as TDP-43, have a read-out as activators. NIH Chemical Genomics Center [NCGC] NIH Molecular Libraries Probe Centers Network [MLPCN] Assay Submitter (PI): Susan Lindquist, Whitehead Institute/MIT MLPCN Grant: R21 NS060957
Dispense 2.5 microL yeast galactose medium per 1536-well plate, pin compound, dispense 2.5 microL TDP-43 expressing yeast in galactose medium at OD600=0.02 (pregrown in raffinose medium to mid-log phase) per well, incubate for 24 hr at 30 deg C, and cell growth will be measured using 5 microL of Bactiter/Glo reagent to entire plate and read using Luminescence Protocol in ViewLux.
For `CCN1CCC(Nc2cccc(F)c2)CC1`, the growth rescue (activation) was inactive: 9.92%. For `CCCOc1ccc(C(=O)NCC2(N(C)C)CCCCC2)cc1OC`, the growth rescue (activation) was inactive: -0.389%. With `COc1cc(C(=O)NCC2(N3CCCCC3)CCCCC2)ccc1OC(F)F` the growth rescue (activation) was inactive: 12.2%. For `CCCCOc1ccc(C(=O)NCC2(N3CCOCC3)CCCCC2)cc1`, the growth rescue (activation) was inactive: 7.43%. In the case of `O=C(NCC1(N2CCCCC2)CCCCC1)c1ccc(F)cc1`, the growth rescue (activation) is reported as inactive: 1.91%. In the case of `COc1cc(C(=O)NCC2(N(C)C)CCCCC2)ccc1OC(F)F`, the growth rescue (activation) is reported as inactive: -29.6%. In the case of `COc1ccc(C(=O)NCC2(N3CCCCC3)CCCCC2)c(OC)c1OC`, the growth rescue (activation) is reported as inactive: 0.47%.

From PubChem BioAssay AID1347073 (National Center for Advancing Translational Sciences (NCATS), 2019)
